Measured values published in US20030162783A1 (priority 1999, published 2003).

Biological target: T1, NMDA receptor glycine site (Rattus norvegicus, UniProt P35439)
T1 construct: brain membranes bearing the receptor; tissue Analytical Biological Services Inc; host or cells: rat brain membranes (cerebral cortex and hippocampus, male Sprague Dawley rats)
Test: Test A: Inhibition of binding of [3H]-MDL105,519 to brain membranes
Text: Test A: Inhibition of Binding of [^3H]-MDL105,519:
Binding of compounds to the NMDA receptor glycine site may be assessed by measuring the ability of test compounds to inhibit the binding of tritiated MDL105,519 to brain membranes bearing the receptor.
Briefly, fresh brain tissue including cerebral cortex and hippocampus from male Sprague Dawley rats was homogenized in 0.32 M sucrose and centrifuged at low speed to separate cellular membranes from other cellular components. The membranes were then washed 3 times using deionized water, followed by treatment with 0.04% Triton X-100. Finally, membranes were washed six times in 50 mM Tris citrate buffer, pH 7.4, and frozen at −80° C. until use.
[^3H]MDL105,519 (72 Ci/mmol) was purchased from Amersham. Cold MDL105,519 was purchased from Sigma/RBI. […] On the day of the experiment, brain membranes were thawed at room temperature and suspended in 50 mM tris acetate buffer, pH 7.4 (“TAB”). […] Non specific binding was determined by using 100 μM of unlabeled MDL105,519. […] The plates were dried overnight at room temperature and bound radioactivity was measured on a Packard TopCount after the addition of 45 μL per well of the MICROSCINT O. […]
Data was analyzed using a Microsoft Excel spreadsheet and GraphPad Prizm software and potency of compounds is expressed as the Ki (nM).

“7-Chloro-4hydroxy-2-(5-isoxazolino)methyl-1,2,5,10-tetrahydropyridazino[4,5-b]quinoline-1,10-dione [Ex. 7]” gave a Ki of 39 nM.
